Earlier results as cited in US20190282692A1, “SELECTIVE LOCAL INHIBITION OF TNFR1-MEDIATED FUNCTIONS AT THE SITE OF ANTIGEN/ALLERGEN PRESENTATION” (priority 2012, published 2019).

Conditions: 45 mg CMS/kg/day in two divided doses, one to two weeks; cited from earlier work

choline magnesium trisalicylate [CMS]
steady state serum salicylate level, mean value: 213+10 mg/L
